By UniProt entry, the sequences of proteins in these tests, tags left out.
UniProt P27732, whole entry: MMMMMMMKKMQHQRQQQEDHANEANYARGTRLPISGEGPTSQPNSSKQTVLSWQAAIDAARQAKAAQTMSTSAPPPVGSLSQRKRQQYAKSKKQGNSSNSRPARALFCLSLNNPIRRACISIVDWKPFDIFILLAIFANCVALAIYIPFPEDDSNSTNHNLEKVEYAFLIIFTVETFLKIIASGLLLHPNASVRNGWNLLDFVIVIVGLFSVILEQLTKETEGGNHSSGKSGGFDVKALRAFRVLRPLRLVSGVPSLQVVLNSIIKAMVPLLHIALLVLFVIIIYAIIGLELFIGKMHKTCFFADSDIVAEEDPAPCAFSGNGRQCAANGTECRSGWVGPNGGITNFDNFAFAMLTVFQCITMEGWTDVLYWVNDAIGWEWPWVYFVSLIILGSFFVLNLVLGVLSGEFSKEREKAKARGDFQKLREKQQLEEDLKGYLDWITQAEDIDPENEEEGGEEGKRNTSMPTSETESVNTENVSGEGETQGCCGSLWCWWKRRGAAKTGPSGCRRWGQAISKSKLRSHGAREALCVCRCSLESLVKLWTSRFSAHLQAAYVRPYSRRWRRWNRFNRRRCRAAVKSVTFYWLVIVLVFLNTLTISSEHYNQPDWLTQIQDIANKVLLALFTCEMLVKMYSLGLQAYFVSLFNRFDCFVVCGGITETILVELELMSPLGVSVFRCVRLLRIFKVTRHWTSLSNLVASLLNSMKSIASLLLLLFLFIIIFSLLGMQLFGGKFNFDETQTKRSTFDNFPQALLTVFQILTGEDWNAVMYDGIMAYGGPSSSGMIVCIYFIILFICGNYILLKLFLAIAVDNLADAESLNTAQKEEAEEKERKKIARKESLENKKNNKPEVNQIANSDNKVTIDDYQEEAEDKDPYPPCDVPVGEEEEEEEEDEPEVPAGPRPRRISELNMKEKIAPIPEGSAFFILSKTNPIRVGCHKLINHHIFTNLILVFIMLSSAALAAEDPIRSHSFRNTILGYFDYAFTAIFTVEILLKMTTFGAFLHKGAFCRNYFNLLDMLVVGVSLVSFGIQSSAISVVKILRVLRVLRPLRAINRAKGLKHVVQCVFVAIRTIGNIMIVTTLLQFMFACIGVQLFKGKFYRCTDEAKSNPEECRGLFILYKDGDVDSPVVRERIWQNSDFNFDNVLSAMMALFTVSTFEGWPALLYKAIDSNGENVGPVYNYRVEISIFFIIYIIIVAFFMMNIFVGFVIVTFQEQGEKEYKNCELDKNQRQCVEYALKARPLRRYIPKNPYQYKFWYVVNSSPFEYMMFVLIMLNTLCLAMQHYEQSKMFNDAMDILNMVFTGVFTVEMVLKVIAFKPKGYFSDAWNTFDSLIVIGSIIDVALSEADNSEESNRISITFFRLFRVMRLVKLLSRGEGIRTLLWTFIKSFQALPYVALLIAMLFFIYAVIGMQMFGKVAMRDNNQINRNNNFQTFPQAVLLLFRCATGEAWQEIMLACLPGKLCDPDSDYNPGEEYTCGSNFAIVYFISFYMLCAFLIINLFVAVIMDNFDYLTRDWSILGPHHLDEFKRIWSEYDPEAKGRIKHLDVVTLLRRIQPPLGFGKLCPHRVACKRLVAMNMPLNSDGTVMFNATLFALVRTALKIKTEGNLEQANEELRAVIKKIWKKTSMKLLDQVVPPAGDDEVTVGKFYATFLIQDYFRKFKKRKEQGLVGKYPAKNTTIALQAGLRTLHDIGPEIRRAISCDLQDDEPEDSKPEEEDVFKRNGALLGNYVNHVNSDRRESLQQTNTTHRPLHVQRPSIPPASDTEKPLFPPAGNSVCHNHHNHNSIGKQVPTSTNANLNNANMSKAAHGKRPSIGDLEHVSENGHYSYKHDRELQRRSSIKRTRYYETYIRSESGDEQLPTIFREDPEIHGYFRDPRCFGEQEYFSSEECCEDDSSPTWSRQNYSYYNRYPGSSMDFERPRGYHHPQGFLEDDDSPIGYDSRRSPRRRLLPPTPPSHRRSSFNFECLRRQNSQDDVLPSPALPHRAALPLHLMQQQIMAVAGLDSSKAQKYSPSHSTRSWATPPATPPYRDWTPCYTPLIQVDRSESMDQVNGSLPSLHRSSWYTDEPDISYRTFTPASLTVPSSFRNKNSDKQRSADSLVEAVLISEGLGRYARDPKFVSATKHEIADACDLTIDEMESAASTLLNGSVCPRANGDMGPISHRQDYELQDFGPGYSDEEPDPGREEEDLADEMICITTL

In patent US20210186970A1, “SELECTIVE CALCIUM CHANNEL ANTAGONISTS” (Northwestern University, priority 2011, published 2021):

Target: T1, Cav1.3 L-type Ca channels (Rattus norvegicus, UniProt P27732)
T1 construct: expressed in transfected cells; host or cells: HEK293
Test: FLIPR Fluo-8 calcium assay, Cav1.3 channel inhibition in HEK293 cells
Format: cell-based

## O=C1CC(=O)N(Cc2ccc(Cl)cc2)C(=O)N1CCc1ccc2ccccc2c1 [Compound 66]
  Selectivity: 1.4
